# Test: Half life in human liver microsomes at 100 uM by LC-MS/MS analysis
# Format: ADME, Microsome
structure (smiles),measurement,value
O=C(O)Cc1ccccc1Nc1c(Cl)cccc1Cl [DICLOFENAC],half-life at 100 µM,5.9 min

# Reference: ChEMBL document CHEMBL5331049, “Structure-based discovery of 1-(3-fluoro-5-(5-(3-(methylsulfonyl)phenyl)-1H-pyrazolo[3,4-b]pyridin-3-yl)phenyl)-3-(pyrimidin-5-yl)urea as a potent and selective nanomolar type-II PLK4 inhibitor” (Eur J Med Chem, 2022)
